From paper PMC6669903

Target: Fluorescein-labeled Tiam1 peptide (mouse)
Experiment: fluorescence polarisation

Kd: 8.1 µM
Substance: CaMKIIα kinase domain (residues 6–274, D135N) (from UniProt Q9UQM7-1 6-274) (domain or fragment)
